The results in this text go back to PMC6066528 (Frontiers in Pharmacology, 2018).

The data set has as its system primary human hepatocytes. As for the experimental part:
Experimental control culture wells were treated with solvent [DMSO, 0.1% (v/v)] alone. […] The bottoms of the wells were scraped using a pipette tip, after which the contents were transferred to an autosampler vial.
Chromatographic separation was performed on a Shimadzu HPLC system (Shimadzu AG, Reinach, Switzerland), coupled to a triple quadrupole tandem mass spectrometer (API4000 or API5500, AB/MDS Sciex, Concord, Canada), operating in positive electrospray ionization mode.
The CYP activities were determined as the respective metabolite formation rates corresponding to the slope in the metabolite concentration versus time graphs.
For induction experiments, metabolite formation rates were determined as described above, and the fold change versus the basal conditions was calculated as the ratio of the metabolite formation rate in wells exposed to an inducer versus formation rates in control wells.

Like-named read-outs stand apart in the source and are kept apart here.

As to `CO[C@H]1/C=C/O[C@@]2(C)Oc3c(C)c(O)c4c(O)c(c(/C=N/N5CCN(C)CC5)c(O)c4c3C2=O)NC(=O)/C(C)=C\C=C\[C@H](C)[C@H](O)[C@@H](C)[C@@H](O)[C@@H](C)[C@H](OC(C)=O)[C@@H]1C` [rifampicin], the “increase of α-OH-metoprolol formation” value is listed as 1.4 factor. Moreover, where the note is “primary human hepatocytes Lot #Hu8124, rifampicin 20 μM 48 h”, the “increase in conversion of O-demethyl-metoprolol to the phenylacetate metabolite” value was determined as 1.6 factor. For the same compound, the “increase in production of the metoprolol phenylacetate metabolite” value (primary human hepatocytes treated with rifampicin (Figure 3D, lot #Hu8124)) is 57%. Moreover, the “increase of α-OH-metoprolol formation” value (primary human hepatocytes, rifampicin 20 μM 48 h, metoprolol 25 μM) is listed as “increased”.
